pKi: −log10 of the molar value.
Columns and labels:
Assay in all cases: Competitive binding assay, [3H]flunitrazepam
[1] = target: GABAA/α4 (α4β3γ2 GABAA receptors) (Homo sapiens, UniProt P18507+P48169); conditions: read-out: Binding Affinity at GABAA/α4; αxβ3γ2, [3H]flunitrazepam competition
[2] = target: GABAA/α3 (α3β3γ2 GABAA receptors) (Homo sapiens, UniProt P18507+P34903); conditions: read-out: Binding Affinity at GABAA/α3; αxβ3γ2, [3H]flunitrazepam competition
[3] = target: GABAA/α5 (α5β3γ2 GABAA receptors) (Homo sapiens, UniProt P18507+P31644); conditions: read-out: Binding Affinity at GABAA/α5; αxβ3γ2, [3H]flunitrazepam competition
[4] = target: GABAA/α1 (α1β3γ2 GABAA receptors) (Homo sapiens, UniProt P14867+P18507); conditions: read-out: Binding Affinity at GABAA/α1; αxβ3γ2, [3H]flunitrazepam competition
[5] = target: GABAA/α6 (α6β3γ2 GABAA receptors) (Homo sapiens, UniProt P18507+Q16445); conditions: read-out: Binding Affinity at GABAA/α6; αxβ3γ2, [3H]flunitrazepam competition
[6] = target: GABAA/α2 (α2β3γ2 GABAA receptors) (Homo sapiens, UniProt P18507+P47869); conditions: read-out: Binding Affinity at GABAA/α2; αxβ3γ2, [3H]flunitrazepam competition

SMILES: C#Cc1ccc2c(c1)C(c1ccccc1)=NCC1=N/C(=C\N3CCN(C)CC3)C(=O)N12
- pKi [1]: < 5.30
- pKi [2]: 6.36
- pKi [3]: 7.66
- pKi [4]: 6.71
- pKi [5]: < 5.30
- pKi [6]: 7.46
